Internalization and internalisation data for 1 substance are collected here from US20250019461A1, “HER3 ANTIGEN-BINDING MOLECULES” (Hummingbird Bioscience Pte. Ltd., priority 2018, published 2025).

Assay [1] concerns N87 cells. Nature of the assay: Antibody internalisation, pHrodo iFL Green imaging. The note with it: 120 nM antibody, 24 hours. The class given is cell-based.
Assay [2] deals with N87 cells. Nature of the assay: Antibody internalisation by flow cytometry. The class given is cell-based. The note with it: 0 min to 4.5 hour.

Turning to “trastuzumab: anti-HER2 antibody trastuzumab”, the internalization entry in the assay with N87 cells [1] is reported as “modest internalization”. Besides, in the assay with N87 cells [2], the internalisation entry is listed as “substantial internalisation”.
